In article PMC7321251, “Verification of the Necessity of the Tolyl Group of PF-543 for Sphingosine Kinase 1 Inhibitory Activity” (Molecules, 2020):
Where “and” joins values, the source holds several entries; their conditions need not be identical. Identical values can stand only once.

Key:
Assay type in all cases: in vitro ADME
[1] = Liver microsomal stability, human (HLM); conditions: human liver microsomes, NADPH
Description: (§1) Microsomal incubations were conducted in triplicate in 0.1 M potassium phosphate buffer (pH 7.4) in a clean 1.5 mL eppendorf tube. […] HLM was added and the mixture was pre-incubated at 37 °C in a shaking incubator at approximately 350 rpm for 5 min under Thermo mixer (Eppendorf., Hamburg, Germany). Reactions were initiated by the addition of 1 mM NADPH and were then quenched by adding 40 µL of ice-cold acetonitrile containing 10 µM chlorproamide (CPP) as an internal standard at 0, 30 min. The incubation mixtures were then centrifuged at 15,000× g for 5 min at 4 °C. A 2 µL aliquot of the supernatant was directly injected into the LC-MS/MS system. The LC-MS/MS system consisted of the Nexera XR HPLC system (Shimadzu Co., Kyoto, Japan) coupled to the TSQ Vantage triple quadrupole mass spectrometer equipped with Xcalibur version 1.1.1 (Thermo Fisher Scientific Inc., Waltham, MA, USA).

[2] = Liver microsomal stability, mouse (MLM); conditions: mouse liver microsomes, NADPH
Description: [Worded in the source for another species; this species is reported under the same test.] as §1

[3] = Liver microsomal stability, rat (RLM); conditions: rat liver microsomes, NADPH
Description: [Worded in the source for another species; this species is reported under the same test.] as §1

[4] = Liver microsomal stability, dog (DLM); conditions: dog liver microsomes, NADPH
Description: [Worded in the source for another species; this species is reported under the same test.] as §1

Which “HLM microsomal stability (% remaining during 30 min)” value [1] does the source give for “(R)-(1-(4-((3-methyl-5-(phenylsulfonyl)phenoxy)methyl)benzyl)pyrrolidin-2-yl)methanol [PF-543]” here?
Its value is < 10 % remaining and 6.4 % remaining.

What about the “MLM microsomal stability (% remaining during 30 min)” value [2] of the same substance?
Its value is < 10 % remaining and 9.4 % remaining.

And the “RLM microsomal stability (% remaining during 30 min)” value [3]?
Its value is < 10 % remaining and 7.8 % remaining.

And the “DLM microsomal stability (% remaining during 30 min)” value [4]?
The value was < 10 % remaining and 7.3 % remaining.
